We go through one compound from ChEMBL document CHEMBL1144215, “N-Propylnoraporphin-11-O-yl carboxylic esters as potent dopamine D(2) and serotonin 5-HT(1A) receptor dual ligands” (Bioorg Med Chem, 2008).

Chains of the proteins cited; added tags and fusions are not shown.
UniProt P14416, whole entry: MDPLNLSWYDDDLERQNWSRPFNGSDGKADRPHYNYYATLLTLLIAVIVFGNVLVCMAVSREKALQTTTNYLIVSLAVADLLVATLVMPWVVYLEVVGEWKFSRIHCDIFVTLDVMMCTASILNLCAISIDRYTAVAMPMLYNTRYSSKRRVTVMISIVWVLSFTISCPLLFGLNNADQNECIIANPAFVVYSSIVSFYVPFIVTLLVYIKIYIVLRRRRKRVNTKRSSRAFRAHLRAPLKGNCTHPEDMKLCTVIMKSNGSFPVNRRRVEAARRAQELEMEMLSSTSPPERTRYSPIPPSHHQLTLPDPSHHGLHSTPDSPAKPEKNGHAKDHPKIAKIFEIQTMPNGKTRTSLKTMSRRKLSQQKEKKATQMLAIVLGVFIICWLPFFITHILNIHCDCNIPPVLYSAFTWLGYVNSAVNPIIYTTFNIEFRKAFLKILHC

Where only a bound is given, the exact number is not on record here.

This test addresses D(2) dopamine receptor (Homo sapiens, UniProt P14416). Kind of test: Displacement of [3H]Spiperone from human dopamine D2 receptor expressed in HEK293 cells. On the technique in general: Loss of bound radioactivity is the signal in a displacement assay; it reports binding, not function.

Consider `CCCN1CCc2cccc3c2[C@H]1Cc1cccc(O)c1-3`, for which the Ki (in general, the dissociation constant of the complex between target and ligand, obtained from inhibition or displacement) was over 10 µM.
